According to patent US20250255961A1, “METHODS TO STIMULATE IMMUNE RESPONSES TO MUTANT RAS USING NUCLEATED CELLS” (STEMCELL TECHNOLOGIES CANADA INC., priority 2020, published 2025):

System: immune cells extracted from HLA-A*11+ transgenic mice
Test: IFN-γ ELISPOT of immune cells extracted from vaccinated HLA-A*11 transgenic mice
Format: in vivo
Text: HLA-A*11 transgenic mice were vaccinated twice (prime/boost; 1 mouse) or 3 times (prime/boost/boost; 3 mice) at 2-week intervals with an emulsion of K-Ras G12C^7-16 peptide, hepatitis B virus core peptide (TPPAYRPPNAPIL; SEQ ID NO:18), and incomplete Freund's Adjuvant. One week after the final vaccination, mice were euthanized, where the spleens and draining lymph nodes were extracted, and tissue extracts were dissociated into single cell suspensions.
(§1) In a first experiment, cell extracts were then plated on an ELISpot plate, and cultured overnight at 37° C. with medium only (negative control), or with medium containing wild type K-Ras^7-16 peptide, or K-Ras G12C^7-16 peptide. The plate was then developed/quantified according to manufacturer's instructions.
as §1, with “Alternatively, cells” for “In a first experiment, cell”, “extracts were cultured for 6 days at 37° C. in the presence of K-Ras G12C^7-16 peptide. Following this incubation, cells” for “extracts”

Sequence: VVVGACGVGK [K-Ras G12C^7-16]
- numbers of IFN-γ expressing responder cells upon co-culture with K-Ras G12C^7-16 peptide (Example 9, FIG. 9A, mice vaccinated with emulsion of K-Ras G12C^7-16 peptide, hepatitis B virus core peptide and incomplete Freund's Adjuvant, cells cultured overnight with peptide): increased amount; also recorded: significantly increased numbers
- numbers of IFN-γ expressing responder cells upon 6 days of co-culture with K-Ras G12C^7-16 peptide (Example 9, FIG. 9B, mice vaccinated with emulsion of K-Ras G12C^7-16, cells cultured 6 days with peptide before ELISpot): significantly increased numbers; also recorded: increased number

Entries after “also recorded” stand apart in the source; their conditions may differ.
